Data taken from US7057059B2, “Tumor-inhibiting platinum (II) oxalate complexes” (Faustus Forschungs CIE. Translational Cancer Research GmbH, priority 2002, dated 2006).

Assays:
[1] = tested on: CH1 (adenocarcinoma of the ovary); conditions: read-out: LC50; cell line CH1, MTT, 96 h
Protocol: (§1) The cytotoxicity of the compounds according to Examples 1 and 2 was tested by using the following cell lines 41M, CH1 and SW480. In this respect the following method was selected:
(§2) In this regard, adherent monolayer cultures of the following cell lines were used: 41M (adenocarcinoma of the ovary), CH1 (adenocarcinoma of the ovary), SW480 (adenocarcinoma of the colon; primary resistance to cisplatinum).
(§3) Culture conditions: The cells were kept in 75 cm^2 culture flasks at 37° C. and moist atmosphere (5% CO2). Minimal Essential Medium (MEM) was used as culture medium, with 2 mmol/l I-glutamine, 1 mmol/l sodium pyruvate, 50 IU/ml penicillin, 50 μg/ml streptomycin and 10% heat-inactivated foetal bovine serum.
(§4) Test execution: Cell suspensions were obtained from subconfluent cultures by treatment with trypsin and seeded in defined density in 96-well microculture plates. The initial density was selected such that for the complete test duration an exponential growth of the cultures was guaranteed. For the cell line 41M this was 4·10^4 cells/ml, for CH1 1.25·10^4 cells/ml and for SW480 1.5·10^4 cells/ml. The plates were incubated for 24 h under standard conditions to achieve cell establishment. Then the compounds to be tested were introduced in ten-staged concentration series in the culture medium (without addition of organic solvents or dissolving agents) into the plates and left for the complete test duration (96 h). Per experiment each concentration was tested on eight microcultures of the same cell line. At the end of the experiment the respective number of living cells in the microculture was determined spectrophotometrically (at 550 nm) using the MTT-dye reaction in relationship to the untreated control cultures. Equally, the number of living cells in microculture plates started in parallel was quantified at the start of the active substance exposition. […] The mean values were used for the evaluation.

[2] = tested on: 41M (adenocarcinoma of the ovary); conditions: read-out: LC50; cell line 41M, MTT, 96 h
Protocol: as §1, §2, §3, §4

[3] = tested on: SW480 (adenocarcinoma of the colon; primary resistance to cisplatinum); conditions: read-out: LC50; cell line SW480, MTT, 96 h
Protocol: as §1, §2, §3, §4

animals free of tumors = experiment: MTD study on animals free of tumors; conditions: Qd×5, animals free of tumors

Work on “(SP-4-3)-(4-methyl-trans-cyclohexane-1,2-diamine)oxalatoplatinum (II) [[(4-methyl-trans-chxn)Pt(ox)]]” yielded a CC50 [1] of 1.9 ± 0.4 µM, a CC50 [2] of 17.9 ± 7 µM and a CC50 [3] of 73.3 ± 48.9 µM. It also gave an MTD (animals free of tumors) of 10 mg/kg.
